Laboratory results published in ChEMBL document CHEMBL1649375, “Design, synthesis and pharmacobiological evaluation of novel acrylic acid derivatives acting as lipoxygenase and cyclooxygenase-1 inhibitors with antioxidant and anti-inflammatory activities” (Eur J Med Chem, 2011).

Key:
Assay type in all cases: functional
Parameters in all cases: scale not given: the % may be the effect or the level left
[1] = DPPH radical scavenging activity assessed as reducing ability at 0.05 mM after 20 mins
Method in brief: (§1)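 DPPH in absolute ethanol mixed with equal volume of compound in DMSO (10 mM stock; final 0.05, 0.1, 0.2 mM); absorbance at 517 nm after 20 and 60 min at room temperature; % reducing ability. At least triplicate.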

[2] = DPPH radical scavenging activity assessed as reducing ability at 0.1 mM after 20 mins; method in brief: as §1
[3] = DPPH radical scavenging activity assessed as reducing ability at 0.1 mM after 60 mins; method in brief: as §1

## CC(Cc1ccc(O)c(O)c1)C(C)Cc1ccc(O)c(O)c1 (stereo not drawn) [NORDIHYDROGUAIARETIC ACID]
[1]
  Activity: 84.8%
[2]
  Activity: 81%
[3]
  Activity: 82.6%
